Literature values as cited in US8426345B2, “Method of drug design” (Alchemia Limited, priority 2005, dated 2013).

By UniProt entry, the sequences of proteins in these tests, tags left out. Where a name states a change or a piece, a line headed by the entry shows the natural chain unless it says otherwise.
UniProt P35346: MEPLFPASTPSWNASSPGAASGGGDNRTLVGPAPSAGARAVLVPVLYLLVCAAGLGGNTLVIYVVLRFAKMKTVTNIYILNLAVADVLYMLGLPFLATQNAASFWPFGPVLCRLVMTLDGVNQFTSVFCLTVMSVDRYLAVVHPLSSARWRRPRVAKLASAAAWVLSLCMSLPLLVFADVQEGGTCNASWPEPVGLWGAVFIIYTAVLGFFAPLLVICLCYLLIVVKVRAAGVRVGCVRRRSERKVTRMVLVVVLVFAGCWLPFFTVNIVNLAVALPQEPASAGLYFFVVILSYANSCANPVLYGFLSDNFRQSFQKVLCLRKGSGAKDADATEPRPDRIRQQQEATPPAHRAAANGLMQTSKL

Molecular target: T1, Human SST5 somatostatin receptor (Homo sapiens, UniProt P35346)
T1 construct: expressed in transfected cells; host or cells: HEK-293 EBNA cells (membranes)
Conditions: human SST5 receptor membranes from HEK-293 EBNA cells; receptor preparation data; read-out: Kd for [125I]SST-14 Binding; cited from earlier work

[^125I]SST-14: radio-labeled SST-14, a truncated version of the natural ligand SST-28; reference ligand of the SST5 assay
Kd: 0.31 nM
